The values that follow come from ChEMBL document CHEMBL5338751, “Discovery of the First-in-Class Intestinal Restricted FXR and FABP1 Dual Modulator ZLY28 for the Treatment of Nonalcoholic Fatty Liver Disease” (J Med Chem, 2023).

As usually defined, the inhibition is the change of the read-out against control, counted positive when it falls.

In the assay the target is T1, Fatty acid-binding protein, liver (Homo sapiens) (UniProt P07148).
T1 sequence (whole entry): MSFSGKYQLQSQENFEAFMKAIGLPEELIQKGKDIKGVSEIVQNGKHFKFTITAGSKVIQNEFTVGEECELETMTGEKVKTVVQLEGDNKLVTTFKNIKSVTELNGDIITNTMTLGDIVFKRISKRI
The assay can be described thus: Displacement of 8-anilino-1-naphthalene-sulfonic acid from FABP1 (unknown origin) at 10 uM incubated for 3 mins by fluorescence based assay relative to control.
`CC(C)(Oc1ccc(-c2ccc(OCc3c(-c4c(Cl)cccc4Cl)noc3C3CC3)cc2)cc1)C(=O)O`: the inhibition was 54.5%. The molecule `O=C(O)Cc1cccc(-c2ccc(OCc3c(-c4ccccc4OC(F)(F)F)noc3C3CC3)cc2)c1` came in with an inhibition of 4.5%.

In turn, `O=C(O)Cc1ccc(-c2ccc(OCc3c(-c4c(Cl)cccc4Cl)noc3C3CC3)c(Cl)c2)cc1` displayed an inhibition of 26.1%.

Take `O=C(O)Cc1ccc(-c2ccc(OCc3c(-c4c(Cl)cccc4Cl)noc3C3CC3)cc2Cl)cc1`: the inhibition stood at 65.1%. Molecule `O=C(O)CCc1cccc(-c2ccc(OCc3c(-c4c(Cl)cccc4Cl)noc3C3CC3)cc2)c1` displayed an inhibition of 70.6%. Regarding `O=C(O)C1(c2ccc(-c3ccc(OCc4c(-c5c(Cl)cccc5Cl)noc4C4CC4)cc3)cc2)CC1`, the inhibition is 54.7%. `O=C(O)C1(c2cccc(-c3ccc(OCc4c(-c5ccccc5C(F)(F)F)noc4C4CC4)cc3)c2)CC1` showed an inhibition of 35.4%.

`O=C(O)Cc1ccc(-c2ccc(OCc3c(-c4ccccc4OC(F)(F)F)noc3C3CC3)cc2)cc1` gave an inhibition of 31.6%. Turning to `O=C(O)C1(c2ccc(N3CCC(OCc4c(-c5c(Cl)cccc5Cl)noc4C4CC4)CC3)cc2)CC1`, the inhibition was determined as 11.7%.

Take `O=C(O)c1cccc(-c2ccc(OCc3c(-c4c(Cl)cccc4Cl)noc3C3CC3)cc2)c1`: the inhibition was determined as 16.2%.

`O=C(O)Cc1ccc(-c2ccc(OCc3c(-c4c(Cl)cccc4Cl)noc3C3CC3)cc2)c(F)c1` registered an inhibition of 4.2%. Turning to `CC(C)(C(=O)O)c1ccc(-c2ccc(OCc3c(-c4c(Cl)cccc4Cl)noc3C3CC3)cc2)cc1`, the inhibition turned out to be 41.7%. `O=C(O)Cc1ccc(-c2ccc(OCc3c(-c4ccccc4C(F)(F)F)noc3C3CC3)cc2)cc1` gave an inhibition of 0.3%. For `CC(C)c1onc(-c2ccccc2OC(F)(F)F)c1COc1ccc(-c2cccc(CC(=O)O)c2)cc1`, the inhibition was 48.5%. `O=C(O)Cc1ccc(N2CCC(OCc3c(-c4c(Cl)cccc4Cl)noc3C3CC3)CC2)cc1` returned an inhibition of 15.1%.

`O=C(O)C1(c2cccc(-c3ccc(OCc4c(-c5ccccc5OC(F)(F)F)noc4C4CC4)cc3)c2)CC1` had an inhibition of 7.8%.

Molecule `CC(C)c1onc(-c2ccccc2OC(F)(F)F)c1COc1ccc(-c2cccc(C3(C(=O)O)CC3)c2)cc1` came in with an inhibition of 22.6%. On to `CC(C)c1onc(-c2c(Cl)cccc2Cl)c1COc1ccc(-c2cccc(C3(C(=O)O)CC3)c2)cc1`, for which the inhibition was found to be 42.8%. `O=C(O)Cc1ccc(-c2ccc(OCc3c(-c4c(Cl)cccc4Cl)noc3C3CC3)c(F)c2)cc1` displayed an inhibition of 31.7%. The result for `CC(C)c1onc(-c2ccccc2OC(F)(F)F)c1COc1ccc(-c2ccc(CC(=O)O)cc2)cc1` reads 41.2%; that for `O=C(O)CCc1ccc(-c2ccc(OCc3c(-c4c(Cl)cccc4Cl)noc3C3CC3)cc2)cc1`, 88.5%; that for `O=C(O)Cc1cccc(-c2ccc(OCc3c(-c4c(Cl)cccc4Cl)noc3C3CC3)cc2)c1`, 42.3%. For the molecule `O=C(O)Cc1ccc(-c2ccc(OCc3c(-c4c(Cl)cccc4Cl)noc3C3CC3)cc2)cc1Cl`, the inhibition was 27.4%.

`Cc1cc(CC(=O)O)ccc1-c1ccc(OCc2c(-c3c(Cl)cccc3Cl)noc2C2CC2)cc1` registered an inhibition of 32.8%. Consider `O=C(O)Cc1ccc(-c2ccc(OCc3c(-c4c(Cl)cccc4Cl)noc3C3CC3)cc2)cc1F`, for which the inhibition turned out to be 24.9%. For `O=C(O)c1ccc(-c2ccc(OCc3c(-c4ccccc4OC(F)(F)F)noc3C3CC3)cc2)cc1`, the inhibition came to 20.3%. Molecule `Cc1cc(-c2ccc(CC(=O)O)cc2)ccc1OCc1c(-c2c(Cl)cccc2Cl)noc1C1CC1` gave an inhibition of 28%. With `O=C(O)Cc1ccc(-c2ccc(OCc3c(-c4c(Cl)cccc4Cl)noc3C3CC3)cc2F)cc1`, the inhibition worked out at 30.6%.

The molecule `Cc1cc(OCc2c(-c3c(Cl)cccc3Cl)noc2C2CC2)ccc1-c1ccc(CC(=O)O)cc1` registered an inhibition of 49.6%. `CC(C)c1onc(-c2c(Cl)cccc2Cl)c1COc1ccc(-c2ccc(CC(=O)O)cc2)cc1` returned an inhibition of 35.7%.

As for `O=C(O)Cc1ccc(-c2ccc(OCc3c(-c4c(Cl)cccc4Cl)noc3C3CC3)cc2)cc1`, the inhibition worked out at 84.2%. The result for `O=C(O)COc1ccc(-c2ccc(OCc3c(-c4c(Cl)cccc4Cl)noc3C3CC3)cc2)cc1` reads 63.5%; that for `CC(C)c1onc(-c2ccccc2C(F)(F)F)c1COc1ccc(-c2ccc(CC(=O)O)cc2)cc1`, 3.7%.
